Source: patent US12234230B2, “Substituted benzyl-triazole compounds for Cbl-b inhibition, and further uses thereof” (Nurix Therapeutics, Inc., priority 2019, dated 2025)

System: primary human total T-cells
Experiment: Primary human total T-cell activation (IL-2 secretion, CD25 surface staining), Biological Example 2
Conditions: anti-CD3 and anti-CD28 co-stimulation, fold change over baseline; for CD25 staining CD3/CD28 0.3 μM: 0.3 μM inhibitor; for CD25 staining CD3/CD28 1 μM: 1 μM inhibitor

| Structure (SMILES) | CD25 staining CD3/CD28 0.3 μM | CD25 staining CD3/CD28 1 μM |
| --- | --- | --- |
| C[C@@H]1CN(Cc2cc3c(c(C(F)(F)F)c2)CN(c2cccc([C@@H](c4nncn4C)C4CCC4)c2)C3=O)CCC1(F)F [Compound 2, 2-(3-((S)-cyclobutyl(4-methyl-4H-1,2,4-triazol-3-yl)methyl)phenyl)-6-(((R)-4,4-difluoro-3-methylpiperidin-1-yl)methyl)-4-(trifluoromethyl)isoindolin-1-one] | A (A indicates >1.39 fold) | A (A indicates >1.39 fold) |
| Cn1cnnc1C1(c2cccc(N3Cc4c(cccc4C(F)(F)F)C3=O)c2)CCCC1 [Compound 11, 2-(3-(1-(4-methyl-4H-1,2,4-triazol-3-yl)cyclopentyl)phenyl)-4-(trifluoromethyl)isoindolin-1-one] | C (C indicates <1.24 fold) | C (C indicates <1.24 fold) |
| Cc1cc(C(=O)Nc2cccc([C@@H](c3nncn3C)C3CCC3)c2)nc(C2CC2)n1 [Compound 12, (S)—N-(3-(cyclobutyl(4-methyl-4H-1,2,4-triazol-3-yl)methyl)phenyl)-2-cyclopropyl-6-methylpyrimidine-4-carboxamide] | C (C indicates <1.24 fold) | C (C indicates <1.24 fold) |
| Cc1cc(C(=O)Nc2cccc([C@H](c3nncn3C)C3CCC3)c2)nc(C2CC2)n1 [Compound 13, (R)—N-(3-(cyclobutyl(4-methyl-4H-1,2,4-triazol-3-yl)methyl)phenyl)-2-cyclopropyl-6-methylpyrimidine-4-carboxamide] | C (C indicates <1.24 fold) | C (C indicates <1.24 fold) |
| CC(c1cc2c(c(C(F)(F)F)c1)CN(c1cccc([C@@H](c3nncn3C)C3CCC3)c1)C2=O)N1CCC(F)(F)[C@H](C)C1 (stereo partly drawn) [Compound 14, 2-(3-((S)-cyclobutyl(4-methyl-4H-1,2,4-triazol-3-yl)methyl)phenyl)-6-(1-((R)-4,4-difluoro-3-methylpiperidin-1-yl)ethyl)-4-(trifluoromethyl)isoindolin-1-one] |  | A (A indicates >1.39 fold) |
| CC(c1cc2c(c(C(F)(F)F)c1)CN(c1cccc([C@@H](c3nncn3C)C3CCC3)c1)C2=O)N1CCC[C@H](C)C1 (stereo partly drawn) [Compound 16, 2-(3-((S)-cyclobutyl(4-methyl-4H-1,2,4-triazol-3-yl)methyl)phenyl)-6-(1-((S)-3-methylpiperidin-1-yl)ethyl)-4-(trifluoromethyl)isoindolin-1-one] | A (A indicates >1.39 fold) | A (A indicates >1.39 fold) |
| C[C@@H]1CN(Cc2cc3c(c(C(F)(F)F)c2)CN(c2cccc([C@]4(c5nncn5C)C[C@@H](C)C4)c2)C3=O)CCC1(F)F [Compound 19, 6-(((R)-4,4-difluoro-3-methylpiperidin-1-yl)methyl)-2-(3-((1s,3S)-3-methyl-1-(4-methyl-4H-1,2,4-triazol-3-yl)cyclobutyl)phenyl)-4-(trifluoromethyl)isoindolin-1-one] | C (C indicates <1.24 fold) | C (C indicates <1.24 fold) |
| Cc1cc(C(=O)Nc2cccc([C@]3(c4nncn4C)C[C@H](C)C3)c2)nc(C2CC2)n1 [Compound 22, 2-cyclopropyl-6-methyl-N-{3-[(1s,3r)-3-methyl-1-(4-methyl-1,2,4-triazol-3-yl)cyclobutyl]phenyl}pyrimidine-4-carboxamide] | C (C indicates <1.24 fold) | C (C indicates <1.24 fold) |
| C[C@@H]1CN(Cc2cc3c(c(C(F)(F)F)c2)CN(c2cccc([C@]4(c5nncn5C)C[C@@H](C)C4)c2)C3=O)CCO1 [Compound 24, 2-(3-((1s,3S)-3-methyl-1-(4-methyl-4H-1,2,4-triazol-3-yl)cyclobutyl)phenyl)-6-(((R)-2-methylmorpholino)methyl)-4-(trifluoromethyl)isoindolin-1-one] | C (C indicates <1.24 fold) | C (C indicates <1.24 fold) |
| C[C@@H]1CN(Cc2cc3c(c(C4CC4)n2)CN(c2cccc([C@]4(c5nncn5C)C[C@@H](C)C4)c2)C3=O)CCC1(F)F [Compound 26, 4-cyclopropyl-6-(((R)-4,4-difluoro-3-methylpiperidin-1-yl)methyl)-2-(3-((1s,3S)-3-methyl-1-(4-methyl-4H-1,2,4-triazol-3-yl)cyclobutyl)phenyl)-2,3-dihydro-1H-pyrrolo[3,4-c]pyridin-1-one] |  | A (A indicates >1.39 fold) |
| CC[C@H]1CN(Cc2cc3c(c(C(F)(F)F)c2)CN(c2cccc([C@]4(c5nncn5C)C[C@@H](C)C4)c2)C3=O)CCO1 [Compound 27, 6-(((S)-2-ethylmorpholino)methyl)-2-(3-((1s,3R)-3-methyl-1-(4-methyl-4H-1,2,4-triazol-3-yl)cyclobutyl)phenyl)-4-(trifluoromethyl)isoindolin-1-one] |  | A (A indicates >1.39 fold) |
| C[C@@H]1CN(Cc2cc3c(c(C(F)(F)F)c2)CN(c2cccc([C@]4(c5nncn5C)C[C@@H](O)C4)c2)C3=O)CCC1(F)F [Compound 31, 6-(((R)-4,4-difluoro-3-methylpiperidin-1-yl)methyl)-2-(3-((1s,3S)-3-hydroxy-1-(4-methyl-4H-1,2,4-triazol-3-yl)cyclobutyl)phenyl)-4-(trifluoromethyl)isoindolin-1-one] | A (A indicates >1.39 fold) | A (A indicates >1.39 fold) |
| C[C@H]1CCCN(Cc2cc3c(c(C(F)(F)F)c2)CN(c2cccc([C@]4(c5nncn5C)C[C@@H](O)C4)c2)C3=O)C1 [Compound 32, 2-(3-((1s,3R)-3-hydroxy-1-(4-methyl-4H-1,2,4-triazol-3-yl)cyclobutyl)phenyl)-6-(((S)-3-methylpiperidin-1-yl)methyl)-4-(trifluoromethyl)isoindolin-1-one] | A (A indicates >1.39 fold) | A (A indicates >1.39 fold) |
| CO[C@H]1C[C@@](c2cccc(N3Cc4c(cc(CN5CCC(F)(F)[C@H](C)C5)cc4C(F)(F)F)C3=O)c2)(c2nncn2C)C1 [Compound 33, 6-(((R)-4,4-difluoro-3-methylpiperidin-1-yl)methyl)-2-(3-((1s,3S)-3-methoxy-1-(4-methyl-4H-1,2,4-triazol-3-yl)cyclobutyl)phenyl)-4-(trifluoromethyl)isoindolin-1-one] |  | A (A indicates >1.39 fold) |
| CO[C@H]1C[C@](c2cccc(N3Cc4c(cc(CN5CCC(F)(F)[C@H](C)C5)cc4C(F)(F)F)C3=O)c2)(c2nncn2C)C1 [Compound 36, 6-(((R)-4,4-difluoro-3-methylpiperidin-1-yl)methyl)-2-(3-(trans-3-methoxy-1-(4-methyl-4H-1,2,4-triazol-3-yl)cyclobutyl)phenyl)-4-(trifluoromethyl)isoindolin-1-one] | C (C indicates <1.24 fold) | C (C indicates <1.24 fold) |
| CO[C@H]1C[C@](c2cccc(N3Cc4c(cc(CN5CCC[C@H](C)C5)cc4C(F)(F)F)C3=O)c2)(c2nncn2C)C1 [Compound 37, 2-(3-((1r,3S)-3-methoxy-1-(4-methyl-4H-1,2,4-triazol-3-yl)cyclobutyl)phenyl)-6-(((S)-3-methylpiperidin-1-yl)methyl)-4-(trifluoromethyl)isoindolin-1-one] |  | A (A indicates >1.39 fold) |
| C[C@@H]1CN(Cc2cc3c(c(C(F)(F)F)c2)CN(c2cccc([C@]4(c5nncn5C)C[C@H](C#N)C4)c2)C3=O)CCC1(F)F [Compound 40, (1R,3r)-3-(3-(6-(((R)-4,4-difluoro-3-methylpiperidin-1-yl)methyl)-1-oxo-4-(trifluoromethyl)isoindolin-2-yl)phenyl)-3-(4-methyl-4H-1,2,4-triazol-3-yl)cyclobutane-1-carbonitrile] | A (A indicates >1.39 fold) | A (A indicates >1.39 fold) |
| C[C@@H]1CN(Cc2cc3c(c(C(F)(F)F)c2)CN(c2cccc(C4(c5nncn5C)CC5(CC5)C4)c2)C3=O)CCC1(F)F [Compound 41, 6-[[(3R)-4,4-difluoro-3-methyl-1-piperidyl]methyl]-2-[3-[5-(4-methyl-1,2,4-triazol-3-yl)spiro[2.3]hexan-5-yl]phenyl]-4-(trifluoromethyl)isoindolin-1-one] | A (A indicates >1.39 fold) | A (A indicates >1.39 fold) |
| Cn1cnnc1C1(c2cccc(N3Cc4c(cc(CN5CCC[C@H](C(F)(F)F)C5)cc4C(F)(F)F)C3=O)c2)CC2(CC2)C1 [Compound 44, (S)-2-(3-(5-(4-methyl-4H-1,2,4-triazol-3-yl)spiro[2.3]hexan-5-yl)phenyl)-4-(trifluoromethyl)-6-((3-(trifluoromethyl)piperidin-1-yl)methyl)isoindolin-1-one] | A (A indicates >1.39 fold) | A (A indicates >1.39 fold) |
| C[C@@H]1CN(C(C)(C)c2cc3c(c(C(F)(F)F)c2)CN(c2cccc(C4(c5nncn5C)CC5(CC5)C4)c2)C3=O)CCO1 [Compound 45, (R)-2-(3-(5-(4-methyl-4H-1,2,4-triazol-3-yl)spiro[2.3]hexan-5-yl)phenyl)-6-(2-(2-methylmorpholino)propan-2-yl)-4-(trifluoromethyl)isoindolin-1-one] |  | A (A indicates >1.39 fold) |
| C[C@@H]1CN(Cc2cc3c(c(C(F)(F)F)c2)CN(c2cccc(C4(c5nncn5C)COC4)c2)C3=O)CCC1(F)F [Compound 47, 6-[[(3R)-4,4-difluoro-3-methyl-1-piperidyl]methyl]-2-[3-[3-(4-methyl-1,2,4-triazol-3-yl)oxetan-3-yl]phenyl]-4-(trifluoromethyl)isoindolin-1-one] | A (A indicates >1.39 fold) | A (A indicates >1.39 fold) |
| C[C@H]1CCCN(Cc2cc3c(c(C(F)(F)F)c2)CN(c2cccc([C@]4(c5nncn5C)C[C@@H](CC#N)C4)c2)C3=O)C1 [Compound 48, 2-((1R,3s)-3-(4-methyl-4H-1,2,4-triazol-3-yl)-3-(3-(6-(((S)-3-methylpiperidin-1-yl)methyl)-1-oxo-4-(trifluoromethyl)isoindolin-2-yl)phenyl)cyclobutyl)acetonitrile] | A (A indicates >1.39 fold) | A (A indicates >1.39 fold) |
